Experiments:
[1] = target: T1, hPXR (Homo sapiens (Human), UniProt O75469); experiment: hPXR binding assay
[2] = target: T1, hPXR; experiment: cell-based hPXR agonistic assay; conditions: for EC50: read-out: Agonist (EC50/μM), cell-based hPXR agonistic assay
[3] = target: T1, hPXR; experiment: cell-based hPXR antagonistic assay
[4] = target: T1, hPXR; experiment: cell-based hPXR inverse agonistic assay

Protein sequences, listed by entry. Tags and fused reporters are not part of them. Lines headed by an entry give the natural chain unless they say otherwise; changes in a name come on top.
UniProt O75469: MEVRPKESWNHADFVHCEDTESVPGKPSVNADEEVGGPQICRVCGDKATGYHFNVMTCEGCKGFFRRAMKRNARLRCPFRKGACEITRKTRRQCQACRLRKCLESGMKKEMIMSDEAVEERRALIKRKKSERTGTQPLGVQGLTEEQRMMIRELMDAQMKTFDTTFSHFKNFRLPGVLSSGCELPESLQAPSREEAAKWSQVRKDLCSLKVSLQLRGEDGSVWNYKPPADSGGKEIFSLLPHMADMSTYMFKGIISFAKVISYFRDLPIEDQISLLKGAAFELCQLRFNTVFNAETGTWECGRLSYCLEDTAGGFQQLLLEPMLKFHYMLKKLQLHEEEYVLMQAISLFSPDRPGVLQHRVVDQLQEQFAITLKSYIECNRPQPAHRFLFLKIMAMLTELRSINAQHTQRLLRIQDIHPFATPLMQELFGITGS

Structure (SMILES) | IC50 ([1]; read-out: Binding (IC50/μM), hPXR binding assay) | Agonist (% activation at 10 μM) ([2]; at 10 μM, rifampicin at 10 μM as 100% activation, DMSO (0.3%) as 0%) | EC50 [2] | IC50 [3] | IC50 [4] | IC50 [1]
CCCCOc1ccc(C(C)(C)C)cc1NC(=O)c1nnn(-c2cccc(OC)c2)c1C [H7] | 0.53 µM | (36 ± 5)% | 3.67 ± 0.74 µM | > 30 µM | > 30 µM | 
CCCCOc1ccc(C(C)(C)C)cc1NC(=O)c1nnn(-c2ccc(OC)c(OC)c2)c1C [H17] |  |  | 4.38 ± 0.08 µM | > 30 µM | > 30 µM | > 30 µM

Reference: patent US20250282736A1 (published 2025)
